The assay addresses cloned human P2Y1 receptors (Homo sapiens (Human), UniProt P47900). As to the kind of experiment: Binding Assay B - Scintillation Proximity Assay (SPA) for P2Y1 binding, [33P] 2MeS-ADP. Particulars: read-out: P2Y1 Ki (nM) using binding assay B, 0.3 nM [33P] 2MeS-ADP, Cheng-Prusoff.

Chains of the proteins cited; added tags and fusions are not shown.
UniProt P47900, whole entry: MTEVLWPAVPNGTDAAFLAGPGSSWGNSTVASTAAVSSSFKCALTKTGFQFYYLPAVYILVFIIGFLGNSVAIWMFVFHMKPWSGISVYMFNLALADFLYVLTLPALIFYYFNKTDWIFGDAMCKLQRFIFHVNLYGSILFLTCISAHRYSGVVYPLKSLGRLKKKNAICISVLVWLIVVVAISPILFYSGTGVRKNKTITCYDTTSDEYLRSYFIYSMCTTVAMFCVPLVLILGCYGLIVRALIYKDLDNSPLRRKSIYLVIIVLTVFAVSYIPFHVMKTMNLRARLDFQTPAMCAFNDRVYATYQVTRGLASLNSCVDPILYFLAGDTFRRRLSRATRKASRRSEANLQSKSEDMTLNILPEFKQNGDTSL

For orientation: Ki means the equilibrium dissociation constant of an inhibitor or competing ligand from its target. Take `CC1(C)CN(c2ccccc2NC(=O)Nc2ccc(OC(F)(F)F)cc2)c2c(O)ccc(-c3nc4cc(F)ccc4o3)c21`: the Ki amounted to 26.7 nM.

The values are drawn from patent US9540323B2 (BRISTOL-MYERS SQUIBB COMPANY, priority 2012, dated 2017).
